Laboratory results published in patent US20200188479A1, “APPARATUS AND METHODS FOR ADMINISTRATION OF A NAUSEOGENIC COMPOUND FROM A DRUG DELIVERY DEVICE” (INTARCIA THERAPEUTICS, INC., priority 2017, published 2020).

Chains of the proteins cited; added tags and fusions are not shown. Residues count along the entry.
UniProt P43220, 24-463: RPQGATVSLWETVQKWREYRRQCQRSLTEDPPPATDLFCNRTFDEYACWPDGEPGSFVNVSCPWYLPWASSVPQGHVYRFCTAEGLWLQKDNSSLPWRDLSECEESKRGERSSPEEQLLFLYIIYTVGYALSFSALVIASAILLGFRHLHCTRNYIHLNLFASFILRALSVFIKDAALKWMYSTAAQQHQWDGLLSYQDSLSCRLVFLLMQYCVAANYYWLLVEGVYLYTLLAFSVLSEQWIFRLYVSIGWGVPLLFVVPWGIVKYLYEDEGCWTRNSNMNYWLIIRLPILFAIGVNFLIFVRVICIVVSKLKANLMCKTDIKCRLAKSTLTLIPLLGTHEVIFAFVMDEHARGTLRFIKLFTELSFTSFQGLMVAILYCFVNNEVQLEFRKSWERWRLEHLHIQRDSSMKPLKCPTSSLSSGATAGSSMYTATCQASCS

Molecular target: T1, human GLP-1 receptors (Homo sapiens, UniProt P43220)
T1 construct: expressed in transfected cells; host or cells: CHO-K1 (transient transfection, Lipofectamine 2000)
Assay: Albumin binding assessed by potency shift: cAMP activation of GLP-1 receptors expressed in CHO-K1 cells at different HSA concentrations
Assay type: cell-based
Conditions: physiologic concentrations (2-4%) HSA versus low (0.1%) HSA
From the text: EC50 values were converted to pEC50 values using the formula: pEC50=−Log(EC50).

Substance: GLP-1[7-36]NH2
- change in potency for activation of GLP-1 receptors: no substantial reduction, or a slight increase
